Measured values published in PubChem BioAssay AID624170 (National Center for Advancing Translational Sciences (NCATS), 2012).
Only a part is listed here, and it is no random draw. Records with an inconclusive call do not appear. Calls of active or inactive are those of the source. Calls come from the whole dose curve; as a rule, active = well fitted inhibition curve with a large enough effect; inconclusive = small, poorly fitted or top-dose-only effect, or another doubt; inactive = no such curve, though single readings can be large or run the other way.

Protein sequences, listed by entry. Tags and fused reporters are not part of them.
UniProt O94925, whole entry: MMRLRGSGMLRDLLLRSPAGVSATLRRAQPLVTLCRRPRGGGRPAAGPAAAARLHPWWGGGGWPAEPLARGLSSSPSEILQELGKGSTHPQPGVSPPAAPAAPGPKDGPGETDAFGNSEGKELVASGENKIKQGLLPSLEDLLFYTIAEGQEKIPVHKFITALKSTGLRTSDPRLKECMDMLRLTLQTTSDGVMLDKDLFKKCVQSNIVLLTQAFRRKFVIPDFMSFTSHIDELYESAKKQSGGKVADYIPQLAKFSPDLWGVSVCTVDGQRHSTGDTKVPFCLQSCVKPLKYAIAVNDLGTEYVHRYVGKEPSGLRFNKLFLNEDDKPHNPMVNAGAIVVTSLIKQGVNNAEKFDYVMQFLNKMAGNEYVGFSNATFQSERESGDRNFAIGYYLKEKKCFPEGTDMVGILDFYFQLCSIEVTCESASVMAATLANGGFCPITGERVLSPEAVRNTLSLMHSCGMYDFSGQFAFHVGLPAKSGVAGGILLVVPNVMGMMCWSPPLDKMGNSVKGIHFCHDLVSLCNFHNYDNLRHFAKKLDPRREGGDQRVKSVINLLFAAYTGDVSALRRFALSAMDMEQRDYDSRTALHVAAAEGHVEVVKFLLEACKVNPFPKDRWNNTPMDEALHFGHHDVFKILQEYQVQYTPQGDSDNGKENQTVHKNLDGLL

Biological target: Glutaminase kidney isoform, mitochondrial (Homo sapiens) (UniProt O94925)
Assay: qHTS for Inhibitors of Glutaminase (GLS)
Details: GLS enzymatic activity, qHTS titration
[1] = at 45.5 µM (top of the series) unless noted
% is set by controls: 0 for no effect and ±100 for the full control effect.

For `O=[N+]([O-])c1cc([N+](=O)[O-])c(Nc2cccnc2)c([N+](=O)[O-])c1`, the activity change, negative = inhibition [1] was inactive: -4.95%.

With `CC(C)(C)c1ccc(OP(C)(=O)Nc2ccc(SC(F)(F)F)cc2)cc1` (stereo not given) the activity change, negative = inhibition [1] was inactive: -15.7%.

With `Cc1cccc(C)c1OP(C)(N)=O` (stereo not given) the activity change, negative = inhibition [1] was inactive: 7.72%.

For `O=[N+]([O-])c1ccc2c(c1)C=Nc1ccccc1O2`, the activity change, negative = inhibition [1] was inactive: 11.3%.

For `CCOC(=O)c1ccc(NP(C)(=O)Oc2ccccc2)cc1` (stereo not given), the activity change, negative = inhibition [1] was inactive: 2.47%.

`COc1ccccc1OP(C)(=O)Nc1ccc(C)cc1` (stereo not given) was tested, and the activity change, negative = inhibition [1] was inactive: 18.2%.

In the case of `Cc1ccc(NP(C)(=O)Oc2ccccc2)c(C)c1` (stereo not given), the activity change, negative = inhibition [1] is reported as inactive: 9.38%.

For `COc1ccccc1OP(C)(=O)Nc1cc(Cl)ccc1C` (stereo not given), the activity change, negative = inhibition [1] was inactive: -18.5%.

For `COc1ccc(OP(C)(=O)Nc2cccc(F)c2)cc1` (stereo not given), the activity change, negative = inhibition [1] was inactive: -5.53%.

With `Cc1cc(C)cc(OP(C)(N)=O)c1` (stereo not given) the activity change, negative = inhibition [1] was inactive: -15.5%.

In the case of `CCN(CC)CCCOC(=O)C(O)(c1ccccc1)c1ccccc1`, the activity change, negative = inhibition [1] is reported as inactive: -0.869%.

In the case of `O=[N+]([O-])[O-].[NH4+]`, the activity change, negative = inhibition [1] is reported as inactive: 2.14%.

For `COc1ccccc1-c1ccccn1.O=[N+]([O-])c1cc([N+](=O)[O-])c(O)c([N+](=O)[O-])c1`, the activity change, negative = inhibition [1] was inactive: -6.69%.

For `CP(=O)(Nc1ccc(SC(F)(F)F)cc1)Oc1ccc(Cl)cc1` (stereo not given), the activity change, negative = inhibition [1] was inactive: -0.39%.

In the case of `Cc1cccc(C)c1OP(C)(=O)Nc1ccc(SC(F)(F)F)cc1` (stereo not given), the activity change, negative = inhibition [1] is reported as inactive: 1.19%.

With `CP(=O)(Oc1ccccc1)OC(c1ccccc1)C(F)(F)F` (stereo not given) the activity change, negative = inhibition [1] was inactive: -0.0458%.

In the case of `CCc1ccc(OP(C)(=O)N2CCN(c3ccc([N+](=O)[O-])cc3)CC2)cc1` (stereo not given), the activity change, negative = inhibition [1] is reported as inactive: -1.49%.

`CP(=O)(NC(=O)Nc1ccccc1)Oc1ccccc1` (stereo not given) was tested, and the activity change, negative = inhibition [1] was inactive: 27.1%.

For `Cc1cc(C)cc(OP(C)(=O)Nc2ccc(SC(F)(F)F)cc2)c1` (stereo not given), the activity change, negative = inhibition [1] was inactive: -0.526%.

In the case of `CCOP(C)(=S)SCC(=O)NC(C)C(=O)O` (stereo not given), the activity change, negative = inhibition [1] is reported as inactive: -6.1%.

With `O=[N+]([O-])c1cc([N+](=O)[O-])c(O)c([N+](=O)[O-])c1.c1ccc(Oc2ccncc2)cc1` the activity change, negative = inhibition [1] was inactive: 39.5%.

For `CCOC(=O)c1ccc(NP(C)(=O)Oc2ccc(OC)cc2)cc1` (stereo not given), the activity change, negative = inhibition [1] was inactive: 6.84%.

With `CN(C)CCS` the activity change, negative = inhibition [1] was inactive: 13.7%.

In the case of `CP(=O)(Nc1ccccn1)Oc1ccc(Cl)cc1` (stereo not given), the activity change, negative = inhibition [1] is reported as inactive: -1.24%.

With `CP(=S)(Nn1cnnc1)Oc1ccccc1` (stereo not given) the activity change, negative = inhibition [1] was inactive: 6.52%.

With `COc1ccccc1OP(C)(=O)Nc1ccccc1` (stereo not given) the activity change, negative = inhibition [1] was inactive: -1.1%.

In the case of `CP(=O)(Nc1ccccc1Br)Oc1ccccc1` (stereo not given), the activity change, negative = inhibition [1] is reported as inactive: -0.298%.

In the case of `O=[N+]([O-])c1cc([N+](=O)[O-])c(Nc2nnnn2CCO)c([N+](=O)[O-])c1`, the activity change, negative = inhibition [1] is reported as inactive: 6.49%.

For `CC1=C2N=C(C=C3N=C(C(C)=C4[N-][C@@](C)([C@@H]5N=C1[C@](C)(CCC(=O)NC[C@@H](C)OP(=O)([O-])O[C@H]1[C@@H](O)[C@@H](n6cnc7cc(C)c(C)cc76)O[C@@H]1CO)[C@H]5CC(N)=O)[C@@](C)(CC(N)=O)[C@@H]4CCC(N)=O)[C@@](C)(CC(N)=O)[C@@H]3CCC(N)=O)C(C)(C)[C@@H]2CCC(N)=O.[C-]#N.[Co+3]`, the activity change, negative = inhibition [1] was inactive: -1.33%.

With `CN1CCCCC1COC(=O)C1(O)c2ccccc2CCc2ccccc21` (stereo not given) the activity change, negative = inhibition [1] was inactive: 4.53%.

With `COc1ccccc1OP(C)(=O)Nc1c(C)cccc1C` (stereo not given) the activity change, negative = inhibition [1] was inactive: -6.4%.

In the case of `CP(=O)(Nc1ccc(SC(F)(F)F)cc1)Oc1ccccc1` (stereo not given), the activity change, negative = inhibition [1] is reported as inactive: 1.14%.

`CCCOc1ccc(NP(C)(=O)Oc2ccc(Cl)cc2)cc1` (stereo not given) was tested, and the activity change, negative = inhibition [1] was inactive: 4.03%.

For `O=[N+]([O-])c1cc([N+](=O)[O-])c(-n2nnc3ccccc32)c([N+](=O)[O-])c1`, the activity change, negative = inhibition [1] was inactive: 20.8%.

`CN(Cc1cccnc1)C(=O)COc1ccc(Cl)c(Cl)c1.O=[N+]([O-])c1cc([N+](=O)[O-])c(O)c([N+](=O)[O-])c1` was tested, and the activity change, negative = inhibition [1] was inactive: 13%.

With `CC(C)N(CCCl)C(C)C` the activity change, negative = inhibition [1] was inactive: -0.546%.

`O=[N+]([O-])c1cc([N+](=O)[O-])c(-c2cnn(-c3ccccc3)c2)c([N+](=O)[O-])c1` was tested, and the activity change, negative = inhibition [1] was inactive: 6.89%.

With `Cc1nc2ccc3ccccc3c2s1.O=[N+]([O-])c1cc([N+](=O)[O-])c(O)c([N+](=O)[O-])c1` the activity change, negative = inhibition [1] was inactive: 18.3%.

With `COc1ccccc1OP(C)(=O)Nc1cccc(Br)c1` (stereo not given) the activity change, negative = inhibition [1] was inactive: -7.96%.

`Cc1cc(C)cc(OP(C)(=O)Nc2ccc(C)cc2C)c1` (stereo not given) was tested, and the activity change, negative = inhibition [1] was inactive: 0.41%.

`CCOC(=O)c1ccc(NP(C)(=O)Oc2cc(C)cc(C)c2)cc1` (stereo not given) was tested, and the activity change, negative = inhibition [1] was inactive: 7.3%.

In the case of `CP(=O)(Nc1cccc(Br)c1)Oc1ccccc1` (stereo not given), the activity change, negative = inhibition [1] is reported as inactive: -3.18%.

For `Cc1cc(C)cc(OP(C)(=O)Nc2ccccn2)c1` (stereo not given), the activity change, negative = inhibition [1] was inactive: 10%.

`Cc1ccc(C)c(NP(C)(=O)Oc2ccccc2)c1` (stereo not given) was tested, and the activity change, negative = inhibition [1] was inactive: 15.3%.

`O=[N+]([O-])c1cccc([N+](=O)[O-])c1` was tested, and the activity change, negative = inhibition (at 45.5 µM (top of the series)) was inactive: -13.4% and the activity change, negative = inhibition (at 99.4 µM (top of the series)) was inactive: -5.18%.

`O=[N+]([O-])OCC(CO[N+](=O)[O-])(CO[N+](=O)[O-])CO[N+](=O)[O-]` was tested, and the activity change, negative = inhibition [1] was inactive: -2.43%.

`CC1=NCCc2c1[nH]c1ccccc21.O=[N+]([O-])c1cc([N+](=O)[O-])c(O)c([N+](=O)[O-])c1` was tested, and the activity change, negative = inhibition [1] was inactive: 0.316%.

`Cc1cccc([N+](=O)[O-])c1[N+](=O)[O-]` was tested, and the activity change, negative = inhibition [1] was inactive: -4.78% [at 99.4 µM].

With `COc1ccc(OP(C)(=O)Nc2ccc(SC(F)(F)F)cc2)cc1` (stereo not given) the activity change, negative = inhibition [1] was inactive: -10.5%.
